Biological target: T1, recombinant human catalytic domain of MMP-13 (Homo sapiens, UniProt P45452)
T1 construct: catalytic domain of MMP-13 (165 amino acids, residues 104-268, 19 kDa)
Assay: biochemical
Details: read-out: MMP-13 Inhibition

## CC#CCOc1ccc(S(=O)(=O)NC(Cc2cn(Cc3ccc(OC)cc3)c3ccc(C)cc23)C(=O)O)cc1 (stereo not shown) [Example 47, N-{[4-(but-2-ynyloxy)phenyl]sulfonyl}-1-(4-methoxybenzyl)-5-methyltryptophan]
  inhibition at 3 µM: 50%

Reference: patent US7576222B2, “Alkynyl-containing tryptophan derivative inhibitors of TACE/matrix metalloproteinase” (priority 2004, dated 2009)
